The record followed here is PubChem BioAssay (Tox21).

SMILES strings stand for the structures. The list shows a part of the results, in another mix than the full data. Records with an inconclusive call do not appear. Where a call stands in place of a potency, no number is given. Active and inactive are the calls of the source. Calls come from the whole dose curve.
Potency is the fitted concentration of half-maximal effect.

This test is described as follows: p53 small molecule agonists, cell-based qHTS assay with human liver microsomes (AID 1963577).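 For activation: p53 response element beta-lactamase reporter cells with liver microsomes plus NADPH.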 To be noted: HCT-116 p53RE-bla with human liver microsomes, ratio, 16 h; series mostly up to 66 µM. From the text: National Center for Advancing Translational Sciences [NCATS]
Division of Preclinical Innovation [DPI]
U.S. Environmental Protection Agency [EPA]
National Institutes of Environmental Health Sciences [NIEHS]
National Toxicology Program [NTP]
U.S. Food and Drug Administration [FDA]
p53, a tumor suppressor protein, is activated following cellular insult, including DNA damage and other cellular stresses. The activation of p53 regulates cell fate by inducing DNA repair, cell cycle arrest, apoptosis, or cellular senescence. The activation of p53, therefore, is a good indicator of DNA damage and other cellular stresses. […] The activation of the reporter gene under culture conditions can be detected by fluorescence intensity.
Tox21 Assay Protocol Summary:
The p53RE-bla cells were dispensed at 4,000cells/3ul/well in 1536-well black-clear bottom plates. After the assay plates were incubated at 37 C, 5% CO2 incubator for 5 hours, 23 nL of compounds dissolved in DMSO, positive controls or DMSO only was transferred to the assay plate. Following compound addition, 3 uL of human liver microsomes (XenoTech, Kansas City, KS) at final concentration of 0.5 mg/mL and 1uL of Beta-Nicotinamide adenine dinucleotide 2-phosphate (NADPH) at final concentration of 0.5 mg/mL were transferred to the assay plate. The plates were incubated at 37 C for 16 hours. 1 uL of LiveBLAzer detection mixture was added to each well and the plates were incubated at room temperature in the dark for 2 h.
(qHTS replaces the single test concentration by a dilution series.)
Consider `CCC(C)(OOC(C)(C)C)OOC(C)(C)C`, for which the activation is inactive: -2.19% [at 13.5 µM]. On to `CCOP(=S)(CC)Sc1ccccc1` (stereo not drawn), for which the Potency is active: 6.44 µM.

`O=P(Cl)(Cl)c1ccccc1`: the Potency entry is “inactive”. Consider `O=C1C2CC=CCC2C(=O)N1SC(Cl)(Cl)C(Cl)Cl` (stereo not drawn), for which the Potency result is “inactive”. In the case of `CCCCC(CC)CO[P+](=O)OCC(CC)CCCC` (stereo not drawn), the Potency entry was “inactive”. For the molecule `O=[N+]([O-])c1ccc([N+](=O)[O-])cc1`, the Potency entry was “inactive”. With `ClP(Cl)c1ccccc1`, the Potency result was “inactive”. For the molecule `COP(=S)(Cl)OC`, the Potency result was “inactive”. For `NC(=O)Nc1ccc([As](=O)(O)O)cc1`, the Potency result was “inactive”.

Regarding `CN(C(=O)Cc1ccc(Cl)c(Cl)c1)[C@H]1CC[C@@]2(CCCO2)C[C@@H]1N1CCCC1`, the Potency entry is “inactive”. The same measure, in the same setting: as for `CCCCO[P+](=O)OCCCC`, the entry is “inactive”; as for `CN(N=O)C(=N)N[N+](=O)[O-]`, “inactive”; as for `CN(C(=O)Cc1ccccc1)[C@H]1CC[C@@]2(CCCO2)C[C@@H]1N1CCCC1`, “inactive”. For `CCNC(C)Cc1ccc2c(c1)OCO2` (stereo not drawn), the Potency result was “inactive”. `O=P(Cl)(Oc1ccccc1)Oc1ccccc1`: the Potency entry is “inactive”.

As to `COC(=O)Cl`, the Potency entry was “inactive”.

Consider `CC(C)CCCCCCCOP(OCCCCCCCC(C)C)Oc1ccccc1`, for which the Potency entry was “inactive”. Take `O=C(Cl)Oc1ccccc1`: the Potency result is “inactive”. With `O=[P+](Oc1ccccc1)Oc1ccccc1`, the Potency entry is “inactive”.

With `Cc1cc([N+](=O)[O-])c(O)c([N+](=O)[O-])c1`, the Potency result was “inactive”.

In the case of `CN(C(=O)Cc1cccc2occc12)[C@H]1CC[C@@]2(CCCO2)C[C@@H]1N1CCCC1`, the Potency result is “inactive”. Take `O=C(Cl)OCCOC(=O)Cl`: the Potency entry is “inactive”. `Cc1cc([N+](=O)[O-])cc([N+](=O)[O-])c1O`: the Potency result was “inactive”.
